Test results taken from publication PMC5050111 (Cancer discovery, 2016).

Legend:
[1] = tested on: ALK I1171 mutations; settings: cited from earlier work
[2] = tested on: ALK F1174 mutations; settings: prior reports; cited from earlier work
[3] = tested on: ALK-positive NSCLC patients; assay: Objective response; assay type: in vivo; settings: 21 patients on crizotinib in a clinical trial, RECIST version 1.0
[4] = tested on: ALK L1198F; settings: dual ALK L1198F+C1156Y; cited from earlier work

Row | SMILES | sensitivity of ALK I1171 mutations [1] | sensitivity of ALK F1174 mutations [2] | objective response [3] [%] | effect of ALK L1198F on sensitivity [4]
1 | CCc1cc2c(cc1N1CCC(N3CCOCC3)CC1)C(C)(C)c1[nH]c3cc(C#N)ccc3c1C2=O [alectinib] | mediate resistance | remain sensitive |  | 
2 | C[C@@H](Oc1cc(-c2cnn(C3CCNCC3)c2)cnc1N)c1c(Cl)ccc(F)c1Cl [crizotinib] |  |  | 86 | re-sensitized cells to crizotinib
